Results as given in patent US12396942B2, “Seed extract of Annona cherimola” (CLR-Chemisches Laboratorium Dr. Kurt Richter GmbH, priority 2019, dated 2025).

By UniProt entry, the sequences of proteins in these tests, tags left out.
UniProt P34972, whole entry: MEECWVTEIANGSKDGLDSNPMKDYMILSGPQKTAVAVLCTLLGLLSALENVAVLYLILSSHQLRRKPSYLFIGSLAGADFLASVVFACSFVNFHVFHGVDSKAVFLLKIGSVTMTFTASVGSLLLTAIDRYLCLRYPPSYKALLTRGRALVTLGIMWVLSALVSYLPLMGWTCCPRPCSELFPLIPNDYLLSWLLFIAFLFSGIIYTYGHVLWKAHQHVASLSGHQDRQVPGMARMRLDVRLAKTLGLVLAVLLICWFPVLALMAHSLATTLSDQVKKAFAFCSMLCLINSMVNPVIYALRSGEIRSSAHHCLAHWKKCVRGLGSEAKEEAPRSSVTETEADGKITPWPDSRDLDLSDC

Target: T1, human cannabinoid receptor 2 (CB2) (Homo sapiens, UniProt P34972)
T1 construct: expressed in transfected cells; host or cells: 293T-CB2 cells, stably transfected with CB2 cDNA and transiently transfected with CRE-luc
Experiment: CB2 agonistic activity, CRE-luc reporter in 293T-CB2-CRE-luc cells stimulated with Forskolin
Type: cell-based
Conditions: 15 min pre-treatment, then 10 μM Forskolin for six hours, expressed as % of Forskolin stimulation, FIG. 1

## Cc1c(C(=O)c2cccc3ccccc23)c2cccc3c2n1[C@H](CN1CCOCC1)CO3 [WIN-55,212-2]
  CB2 agonist activity as inhibition of Forskolin-induced CRE-Luc activity: acts as a CB2 agonist and partially antagonizes the effect of Forskolin
